# Measured values as given in patent US6753155B1, “Protein biomarker for mustard chemical injury” (dated 2004).
# Test system: mustard-stimulated protease
# Test: Inhibition of CEES-induced protease stimulation in NHEK (CPSPA), agents in the extracellular medium
# Settings: cycloheximide 35 μM in extracellular medium; 200 μM CEES
smiles,measurement,value
C[C@@H]1C[C@@H]([C@H](O)CC2CC(=O)NC(=O)C2)C(=O)[C@@H](C)C1,inhibition of CEES-induced protease stimulation,completely inhibited
